US20070054902A1, “Isoxazole derivatives as peroxisome proliferator-activated receptors agonists” (SHIONOGI & CO., LTD., priority 2003, published 2007)

Amino acid sequences for entries named in this document (tags omitted).
UniProt P11712, whole entry: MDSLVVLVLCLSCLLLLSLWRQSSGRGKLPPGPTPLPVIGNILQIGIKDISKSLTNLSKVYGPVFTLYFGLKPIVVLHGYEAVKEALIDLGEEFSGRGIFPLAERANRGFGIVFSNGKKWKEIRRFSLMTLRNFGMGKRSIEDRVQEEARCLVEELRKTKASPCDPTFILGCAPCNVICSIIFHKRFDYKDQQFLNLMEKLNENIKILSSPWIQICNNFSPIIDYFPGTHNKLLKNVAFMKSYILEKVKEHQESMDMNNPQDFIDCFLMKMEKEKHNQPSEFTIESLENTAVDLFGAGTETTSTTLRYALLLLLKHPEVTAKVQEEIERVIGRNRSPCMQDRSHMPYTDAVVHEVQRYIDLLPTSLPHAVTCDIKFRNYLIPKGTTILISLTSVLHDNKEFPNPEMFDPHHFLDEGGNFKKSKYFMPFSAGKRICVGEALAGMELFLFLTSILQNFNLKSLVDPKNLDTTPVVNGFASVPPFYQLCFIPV

Target: CYP2C9 (Homo sapiens, UniProt P11712)
Assay: Test for inhibition of CYP2C9 enzyme (tolbutamide 4-position hydration, human liver microsomes)
Conditions: human liver microsomes 0.25 mg/ml, 5 μM tolbutamide, 30 minutes, 37° C.; solvent control = 100%

Residual activity (%) CYP2C9: 28%
SMILES: Cc1cc(SCc2cc(-c3ccc(C(F)(F)F)cc3)on2)ccc1OCC(=O)O
